Assay outcomes: PubChem BioAssay, Broad Institute
Rows were chosen to be rich in hits. Some 1.5% of all compounds tested hit in one or more screens of this group.
PglD DTNB: inhibitors of Campylobacter jejuni PglD acetyltransferase. inhibition, % at 12.5 µM. purified PglD enzyme, DTNB colorimetric CoA detection. 0.098% of 360,000 active. AID 602405; in the data active means inhibition above about 16%, passing the limit was not always enough
RAD52 anneal inh: RAD52 (human) annealing inhibition | 0.46% of 360,000 active | inhibition, % at 18.7 µM | recombinant RAD52 DNA annealing, FRET fluorescence | P43351 | AID 651710;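 active means every replicate showing at least 50% inhibition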
RAD54 inh: blocks human RAD54 Holliday junction branch migration; FAM/BHQ fluorescence; inhibition, % at 10.4 µM; 0.14% of 360,000 active; Q92698;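 active means mean normalized replicate activity at least 40 and at least half of replicates scoring 40 or more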;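 further: 0% = median of neutral control wells and 100% = median of positive control wells; inhibitors cause a drop in the FAM fluorescence signal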
Yeast UUG start: modulators of start codon recognition fidelity in yeast. S. cerevisiae UUG-firefly luciferase reporter, luminescence/redox ratio. activity score, % at 18.7 µM. 350,000 tested, 0.13% active;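 active = replicate mean at a twofold rise or more, about +100% in these data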;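 note: firefly luciferase made from a UUG start codon reports start codon fidelity; reporter light over untreated wells divided by growth signal over untreated wells; some hits fall short of that in this replicate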
Casp6 inh: caspase-6 (human) enzyme inhibition; P55212; purified caspase-6, Z-VEID-R110 cleavage fluorescence; inhibition, % at 12.5 µM; 0.53% of 350,000 active; AID 686996;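 active means mean inhibition across replicates at least about 35%, with every replicate also reaching that limit, limit read from the data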;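 further: 0% = median of neutral control wells and 100% = no fluorescence left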
GSIS activator: primary screen for activators of insulin secretion dependent on glucose, INS-1E cells, GLuc reporter luminescence | INS-1E GLuc reporter insulin secretion, 2-3 h | activation, % at 16.6 µM | 0.61% of 370,000 active | AID 743287;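 active means lowest replicate activation of at least 40%, so every replicate reaches that level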;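 further: 0% = median of neutral control wells and 100% = median of IBMX positive control wells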
An asterisk follows results filed as active; · = no result given; ! = a repeat was not active.

Letters: A = PglD DTNB; B = RAD52 anneal inh; C = RAD54 inh; D = Yeast UUG start; E = Casp6 inh; F = GSIS activator
COC(=O)C1=COC(OC2OC(CO)C(O)C(O)C2O)C2C1C=CC2(O)CO (configuration not stated)
  A: 7 | B: 0 | C: 5 | D: -5 | E: 48* | F: ·

CC(C)CNC(=O)C(=O)NCCC1CCCCN1S(=O)(=O)c1cccs1 (configuration not stated)
  A: 4 | B: -12 | C: 4 | D: -16 | E: 1 | F: -8

C/C=C/COC(=O)c1[nH]c2c(c1C)C(=O)CC(c1ccco1)C2 (configuration not stated)
  A: 7 | B: -26 | C: -13 | D: -4 | E: 17 | F: -1

C[C@H](CO)N1C[C@H](C)[C@@H](CN(C)C(=O)NC2CCCCC2)Oc2c(NS(=O)(=O)c3cccs3)cccc2C1=O
  A: -5 | B: 2 | C: -25 | D: 28 | E: 2 | F: 3

CCCc1ccc(-c2cc(NC(=O)Cc3c[nH]c4ccccc34)ccc2Nc2cccnc2)cc1
  A: · | B: 5 | C: · | D: · | E: -1 | F: ·

CC(C)(C)c1ccc(-c2cc(NC(=O)Cc3c[nH]c4ccccc34)ccc2Nc2cccnc2)cc1
  A: · | B: -80 | C: · | D: · | E: 0 | F: 57*

CCS(=O)(=O)Nc1ccc(-c2cc(-c3ccccc3)c3cc(C)ccc3n2)cc1
  A: · | B: · | C: · | D: · | E: · | F: 110*

C[C@H](CO)N1C[C@H](C)[C@@H](CN(C)Cc2ccc(C(F)(F)F)cc2)OCCCC[C@H](C)Oc2ccc(NS(C)(=O)=O)cc2C1=O
  A: -1 | B: · | C: 5 | D: 8 | E: · | F: -6

CC1OC2CC(=O)OC2C2=C1C(=O)c1c(O)cccc1C2=O (configuration not stated)
  A: 6 | B: -14 | C: 4 | D: -78 | E: 85* | F: 8

Cc1ccc(N(Cc2ccc(C(=O)NCCSc3ccccn3)cc2)S(C)(=O)=O)cc1C
  A: 3 | B: -1 | C: -1 | D: -3 | E: -1 | F: 3

Cn1nnnc1Sc1ncnc2scc(-c3ccc(Cl)cc3)c12
  A: 5 | B: -6 | C: -1 | D: -2 | E: 0 | F: 70*

CC(=O)c1cccc(-c2csc3ncnc(Sc4nnnn4C)c23)c1
  A: -1 | B: -12 | C: 2 | D: -23 | E: 8 | F: 42*

C[C@@H]1CN([C@H](C)CO)C(=O)CCCn2cc(nn2)CO[C@H]1CN(C)S(=O)(=O)c1cccs1
  A: -4 | B: 7 | C: -10 | D: -11 | E: 2 | F: 41*!

C[C@@H]1CN([C@@H](C)CO)C(=O)CCCn2cc(nn2)CO[C@H]1CN(C)S(=O)(=O)c1cccs1
  A: -2 | B: -13 | C: -5 | D: -8 | E: -2 | F: 2

C[C@H](CO)N1C[C@H](C)[C@H](CN(C)C(=O)Nc2ccc(N3CCN(C)CC3)cc2)OCc2cn(nn2)CCCC1=O
  A: -2 | B: 16 | C: 0 | D: -10 | E: 0 | F: 20

C[C@H]1CN([C@@H](C)CO)C(=O)CCCn2cc(nn2)CO[C@@H]1CN(C)C(=O)Nc1ccc(N2CCN(C)CC2)cc1
  A: 2 | B: 55*! | C: -9 | D: 4 | E: -8 | F: 17

CCCOC(=O)C1=C(C)NC(=O)NC1c1ccc(Br)s1 (configuration not stated)
  A: · | B: -5 | C: · | D: · | E: -3 | F: 6

O=C(O)c1cnn2c1C(=O)N(Cc1cccs1)CC2
  A: · | B: -18 | C: · | D: · | E: 64* | F: 2

O=C(CSc1nc(O)c(Cc2ccccc2)c(=O)[nH]1)Nc1nnc(SCc2ccccc2)s1
  A: 8 | B: -11 | C: -15 | D: -16 | E: 51* | F: 9

Cc1ccc(S(=O)(=O)SCCCSS(=O)(=O)c2ccc(C)cc2)cc1
  A: 4 | B: -21 | C: -5 | D: -24 | E: -3 | F: 189*

C/C(=N\NC(=O)c1ccc(Cl)c(Cl)c1)c1ccc(Br)s1
  A: · | B: · | C: · | D: · | E: · | F: 102*

Cc1ccccc1-c1ccc([C@H]2[C@@H](CO)N3CCCCN(C(=O)c4cccnc4)C[C@H]23)cc1
  A: 7 | B: -3 | C: 7 | D: -12 | E: 2 | F: 2

Cc1cc(C(=O)CCC(=O)N2CCN(c3ccccc3O)CC2)c(C)s1
  A: 1 | B: -37 | C: -7 | D: -24 | E: 4 | F: 13

CCOC(=O)c1c(NC(=O)Cn2nc(C(F)(F)F)cc2C)sc(C)c1C
  A: 8 | B: · | C: -6 | D: -4 | E: · | F: 61*

CCOC(=O)c1c(C)oc2c1c(C=NCc1ccccn1)c(O)c1ccccc12
  A: · | B: -2 | C: · | D: · | E: 60* | F: ·

CCCc1cc(=O)oc2cc(OCC(=O)NC3CCN(Cc4ccccc4)CC3)ccc12
  A: 5 | B: -8 | C: 2 | D: -6 | E: -2 | F: 44*

N#Cc1c(-c2ccco2)cc(C2CC2)nc1N
  A: -3 | B: · | C: -1 | D: 6 | E: · | F: 71*

N#Cc1c(-c2ccccc2)cc(C2CC2)nc1N
  A: -5 | B: · | C: -11 | D: -36 | E: · | F: ·

CN1C(=O)c2cc(NC(=O)Nc3ccc(Cl)cc3)ccc2OC[C@@H]2O[C@H](CC(=O)NCCN3CCCCC3)CC[C@@H]21
  A: 3 | B: 54* | C: 18 | D: · | E: 3 | F: 6

COc1ccc2c(c1)C=C(CN1CCN(C3CCCC3)C(CCO)C1)CO2 (configuration not stated)
  A: 3 | B: -4 | C: -3 | D: -7 | E: -5 | F: -6

O=C(/C=C/c1ccccc1)OCC(=O)N1CCCC1
  A: -3 | B: -5 | C: 1 | D: -17 | E: -2 | F: 14

O=C(/C=C/c1ccco1)OCC(=O)N1CCCCC1
  A: 7 | B: -17 | C: 4 | D: -7 | E: 50* | F: ·

CCN(C(=O)COC(=O)/C=C/c1ccco1)C1CCCCC1
  A: 5 | B: -14 | C: 1 | D: 2 | E: 57* | F: -6

COCC(=O)N1CC(=O)N2[C@@H](CO)[C@@H](c3ccc(C#CCc4ccccc4)cc3)[C@@H]2C1
  A: · | B: -9 | C: · | D: · | E: -1 | F: 15

CC1(C(=O)NCc2ccccc2)CN(S(C)(=O)=O)CC(=O)N1C1CC1 (configuration not stated)
  A: · | B: -19 | C: · | D: · | E: -2 | F: 65*

Cc1ccccc1CN1C(=O)CN(S(C)(=O)=O)CC1(C)C(=O)NCc1ccccc1 (configuration not stated)
  A: · | B: -2 | C: · | D: · | E: 0 | F: 6

CCc1nnc(NC(=O)CSc2nnc(-c3ccccc3NC(=O)c3ccccc3)o2)s1
  A: 5 | B: · | C: -2 | D: -29 | E: · | F: 52*

CCOC(=O)CSc1nnc(-c2ccccc2NC(=O)c2ccccc2)o1
  A: 2 | B: · | C: -2 | D: -21 | E: · | F: 54

NC(=O)c1sc2nc3c(c(-c4ccco4)c2c1N)CCCC3
  A: 2 | B: -9 | C: -6 | D: -14 | E: 9 | F: -9

Nc1c(C(=O)NCC2CCCO2)sc2nc3c(c(-c4ccco4)c12)CC/C3=C\c1ccco1 (configuration not stated)
  A: -1 | B: -75 | C: 0 | D: -8 | E: 42* | F: ·

Cc1nc(S(=O)(=O)Cc2ccc(Cl)cc2)nc2c1CCC2
  A: 6 | B: -15 | C: -5 | D: -18 | E: 2 | F: -1

Cc1nc(N)nc2c1CCCC2
  A: -4 | B: · | C: 3 | D: -21 | E: · | F: 43*

O=C(CNc1cccc([N+](=O)[O-])c1)N/N=C/c1ccc([N+](=O)[O-])o1
  A: 3 | B: 1 | C: 0 | D: -10 | E: 1 | F: -8

CC1CCc2c(c3ccccc3n2C(=O)CCl)C1 (configuration not stated)
  A: 3 | B: -1 | C: 8 | D: -7 | E: 96* | F: -18

Cc1ccsc1/C=N/n1c(-c2ccccc2)n[nH]c1=S
  A: · | B: -12 | C: · | D: · | E: -3 | F: -4

Cc1cccc(-c2n[nH]c(=S)n2/N=C/C=C/c2ccco2)c1
  A: -2 | B: 0 | C: -1 | D: -24 | E: 7 | F: -10

Cc1ccsc1/C=N/n1c(-c2ccncc2)n[nH]c1=S
  A: -5 | B: · | C: 9 | D: -14 | E: · | F: 48*

Another view of part of the listing above:
Every second line gives: PglD DTNB	RAD52 anneal inh	RAD54 inh	Yeast UUG start	Casp6 inh	GSIS activator
> C[C@H](CO)N1C[C@H](C)[C@@H](CN(C)C(=O)NC2CCCCC2)Oc2c(NS(=O)(=O)c3cccs3)cccc2C1=O
    -5	2	-25	28	2	3
> CCCc1ccc(-c2cc(NC(=O)Cc3c[nH]c4ccccc34)ccc2Nc2cccnc2)cc1
    ·	5	·	·	-1	·
> CC(C)(C)c1ccc(-c2cc(NC(=O)Cc3c[nH]c4ccccc34)ccc2Nc2cccnc2)cc1
    ·	-80	·	·	0	57*
